# Results published in US9375407B2, “Dimethyl trisulfide as a cyanide antidote” (dated 2016).
# Values joined by “and” are separate entries in the source; they are usually repeats but may differ in a detail not shown here. Equal entries are not always repeated.
# Experiment: In vivo antidotal efficacy in a mouse model (Dixon up-and-down LD50 of KCN)
# Conditions: KCN sc
Compound,APR (LD50 of CN with antidote/LD50 of CN without antidote) (antidote 3.2 mg/kg im),APR (LD50 of CN with antidote/LD50 of CN without antidote) (antidote 6.4 mg/kg im),APR (LD50 of CN with antidote/LD50 of CN without antidote) (antidote 12.5 mg/kg im),APR (LD50 of CN with antidote/LD50 of CN without antidote) (antidote 25 mg/kg im),APR (LD50 of CN with antidote/LD50 of CN without antidote) (antidote 50 mg/kg im),APR (LD50 of CN with antidote/LD50 of CN without antidote) (antidote 100 mg/kg im),APR (LD50 of CN with antidote/LD50 of CN without antidote) (antidote 200 mg/kg im),"in vivo antidotal efficacy, DMTS vs TS (antidote im, comparison with TS)"
O=NO,1.0,1.3,,,,,,
dimethyl trisulfide,,,2.1,1.7,2.04 and 2.0,3.4 and 3.2,4.1,superior
sodium thiosulfate,,,,,,1.1,1.3,
